# Source: patent publication US7939631B2, “APO-2 receptor polypeptides” (Genentech, Inc., priority 1997, dated 2011)
# Legend:
# NF-κB [1] = assay: NF-κB electrophoretic mobility shift assay in HeLa cells; format: cell-based, human; settings: 1 μg/ml; FIG. 5B
# Protocol: (§1) HeLa cells were transfected with pRK5 expression plasmids encoding full-length native sequence Apo-2, DR4 or Apo-3 and harvested 24 hours after transfection. […] Immunol., 153:5274-5284 (1994)], alone or together with a 50-fold excess of unlabelled probe, or with an irrelevant ^32P-labelled synthetic oligonucleotide […] […] In some samples, antibody to p65/RelA subunits of NF-κB (1 μg/ml; Santa Cruz Biotechnology) was added. DNA binding was analyzed by an electrophoretic mobility shift assay as described by Hsu et al., supra; Marsters et al., supra, and MacKay et al., supra.
# NF-κB [2] = assay: NF-κB electrophoretic mobility shift assay in MCF7 cells; format: cell-based, human; settings: 1 μg/ml; FIG. 5B
# Protocol: as §1
substance,measurement,setting,value
"TNF-alpha: tumor necrosis factor-α (Genentech, Inc.)",NF-κB activation in HeLa cells,NF-κB [1],induced a more pronounced activation in both cell lines
same,NF-κB activation in MCF7 cells,NF-κB [2],induced a more pronounced activation in both cell lines
